This is a sample that favours compounds with a hit; in the whole collection about 4.2% have one here.
MC4R antag cAMP: antagonists of human melanocortin 4 receptor (MC4R). MC4R-expressing cells, MTII-stimulated cAMP, LANCE TR-FRET. hit rate 0.48% among 360,000. P32245. inhibition, % at 6.5 µM;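 active means inhibition above its plate's cutoff, the mean of tested wells on that plate plus 3 SD, cut at about 29% in these data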;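 further: 0% = Melanotan II alone and 100% = Melanotan II plus saturating MCL0020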
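Material: U2OS-MC4R stable cell line | Reagent: Melanotan II challenge after compound preincubation | Doses: One concentration, 6.5 µM nominal | Incubation: 30-min compound preincubation, 1-h Melanotan II challenge, 1-h detection, room temperature | Signal: TR-FRET cAMP assay | Replicates: One well per compound, no replicates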
ALR H2O2 inh: human ALR oxidase inhibition via reduced H2O2. 290,000 tested, 3.8% active. AID 485317. purified ALR, DTT oxidation, H2O2 HRP-luminol luminescence. inhibition, % (test concentration not listed). P55789;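 active = mean and each replicate at 75% or more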;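 also: stock transfer was 7.5 nL into about 7.5 µL; 0% = neutral wells and 100% = wells with inactivated enzyme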
MC4R ag barr: agonists of human melanocortin 4 receptor (MC4R) beta-arrestin; U2OS MC4R beta-arrestin complementation, luminescence; percent of melanotan II response, DMSO zero; hit rate 0.98% among 360,000; activation, % at 8.9 µM; P32245; AID 540308;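 active means activation above a per-plate cutoff, the mean activation of sample wells on that plate plus 3 SD, cut at about 8% in these data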
Yeast UUG start: yeast start codon fidelity modulation | S. cerevisiae UUG-firefly luciferase reporter, luminescence/redox ratio | activity score, % at 18.7 µM | 0.13% of 350,000 active | AID 602363;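 active means replicate mean at a twofold rise or more, about +100% in these data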;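 further: firefly luciferase made from a UUG start codon reports start codon fidelity; reporter light over untreated wells divided by growth signal over untreated wells; some hits fall short of that in this replicate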
NALP1 yeast inh: NALP1 inhibition; hit rate 0.61% among 280,000; S. cerevisiae NALP1/ASC/caspase-1 growth, X-gal OD620, 72 h; inhibition, % at 10 µM; in the data active means inhibition mostly above about 24%, no sharp cut-off; inactive means mostly below about 32%
HDAC3 inhib: inhibitors of human histone deacetylase 3 | hit rate 0.15% among 320,000 | recombinant HDAC3, fluorogenic peptide/trypsin coupled, fluorescence | inhibition, % at 8.3 µM; in the data active means inhibition above about 26%, passing the limit was not always enough
Active calls of the source: *.

CCC(C(=O)Nc1ccc(C(=O)Nc2ccccc2C(=O)O)cc1)c1ccccc1 (stereo not given) was read as MC4R antag cAMP -3, ALR H2O2 inh 79*, MC4R ag barr -1, Yeast UUG start -9, NALP1 yeast inh -5 and HDAC3 inhib 1.
CC(c1ccccc1)N1C(=O)c2ccc(C(=O)Nc3ccccc3C(=O)O)cc2C1=O (stereo not given) was read as MC4R antag cAMP 7, ALR H2O2 inh 98*, MC4R ag barr -3, Yeast UUG start -13, NALP1 yeast inh 4 and HDAC3 inhib 4.
CCC(C(=O)Nc1ccc(C)cc1)c1ccccc1 (stereo not given) was read as MC4R antag cAMP 5, ALR H2O2 inh -7, MC4R ag barr -2, Yeast UUG start -1, NALP1 yeast inh 7 and HDAC3 inhib -4.
CC(C)CCN1C(=O)c2ccc(C(=O)Nc3ccccc3C(=O)O)cc2C1=O was read as MC4R antag cAMP 3, ALR H2O2 inh 98*, MC4R ag barr -1, NALP1 yeast inh -1 and HDAC3 inhib 9.
Screening Cn1cnc(S(=O)(=O)N2CCCCN3[C@@H](CO)[C@@H](c4ccc(C#CC5CC5)cc4)[C@@H]3C2)c1 returned Yeast UUG start 11.
COc1ccc(NC(=O)N[C@H]2CC[C@H](CCNC(=O)Cc3ccncc3)O[C@@H]2CO)cc1 was read as Yeast UUG start 3.
Screening Cn1c2ccccc2c2cc(/C=C(\NC(=O)c3ccccc3)C(=O)O)ccc21 returned MC4R antag cAMP -3, ALR H2O2 inh 86*, MC4R ag barr -1, Yeast UUG start -17 and HDAC3 inhib 6.
Screening COC(=O)/C(=C\c1ccc2c(c1)c1ccccc1n2C)NC(=O)c1ccccc1 returned MC4R antag cAMP 2, ALR H2O2 inh -1, MC4R ag barr 3, Yeast UUG start -6, NALP1 yeast inh 24 and HDAC3 inhib 10.
O=C1CSC(c2ccccn2)N1c1cccc(Cl)c1 (stereo not given) was read as MC4R antag cAMP 11, ALR H2O2 inh 99*, MC4R ag barr 1, Yeast UUG start -5, NALP1 yeast inh 15 and HDAC3 inhib -1.
`O=C1CSC(c2ccccn2)N1c1ccccc1F` (stereo not given) gave MC4R antag cAMP 4, MC4R ag barr -2 and NALP1 yeast inh 2.
Screening Cc1ccc(N2C(=O)CSC2c2ccccn2)cc1Cl (stereo not given) returned MC4R antag cAMP 3, ALR H2O2 inh 99*, MC4R ag barr -1, Yeast UUG start -13, NALP1 yeast inh 20 and HDAC3 inhib -1.
CO[C@H]1CN(C)C(=O)c2ccc(NC(=O)NC(C)C)cc2OC[C@@H](C)N(C(=O)C2CCC2)C[C@@H]1C was read as Yeast UUG start 8.
Screening O=[N+]([O-])c1ccc2c(c1)nc1n2CCCCC1 returned MC4R antag cAMP 2, ALR H2O2 inh -2, MC4R ag barr -2, NALP1 yeast inh 4 and HDAC3 inhib 12.
Screening O=[N+]([O-])c1ccc2c(c1)C=C1CCCCC1(N1CCCC1)O2 (stereo not given) returned MC4R antag cAMP 8, ALR H2O2 inh 92*, MC4R ag barr 1, Yeast UUG start -8, NALP1 yeast inh -14 and HDAC3 inhib 0.
For CCn1cc(C(=O)OCC(=O)Nc2ccc(C(C)C)cc2)c(=O)c2ccc(C)nc21 the results were MC4R antag cAMP 1, ALR H2O2 inh -10, MC4R ag barr -4, NALP1 yeast inh 25* and HDAC3 inhib 2.
CCn1cc(C(=O)OCC(=O)Nc2ccccc2OC(F)F)c(=O)c2ccc(C)nc21 was read as MC4R antag cAMP 3, ALR H2O2 inh -3, MC4R ag barr -1, Yeast UUG start -3 and HDAC3 inhib 2.
CC(=O)N1CCCCN2[C@H](CO)[C@H](c3ccc(C#Cc4ccccc4F)cc3)[C@@H]2C1 was read as Yeast UUG start 18.
For Cn1ccnc1SCc1cn2cc(Br)ccc2n1 the results were MC4R antag cAMP 7, ALR H2O2 inh 99*, MC4R ag barr 0, Yeast UUG start -69, NALP1 yeast inh 13 and HDAC3 inhib 4.
`Cc1c(Cl)cccc1NS(=O)(=O)c1ccc2c(c1)C1C=CCC1C(c1ccc(C(=O)O)cc1)N2` (stereo not given) gave MC4R antag cAMP 15, ALR H2O2 inh 98*, MC4R ag barr -2, NALP1 yeast inh 0 and HDAC3 inhib -1.
For CCOC(=O)c1ccc(NC(=O)C(C)Sc2nc(O)c(-c3ccccc3)c(=O)[nH]2)cc1 (stereo not given) the results were MC4R antag cAMP -6, ALR H2O2 inh 99*, MC4R ag barr -1, NALP1 yeast inh -4 and HDAC3 inhib -6.
`COC(=O)c1ccc2nc(C)cc(Nc3ccc(N(C)C)cc3)c2c1` gave MC4R antag cAMP -4, ALR H2O2 inh 99*, MC4R ag barr 1, Yeast UUG start -5, NALP1 yeast inh 14 and HDAC3 inhib 9.
For COc1ccc(CN(C)C[C@H]2OCCCC[C@@H](C)Oc3ccc(NC(=O)c4ccncc4)cc3C(=O)N([C@@H](C)CO)C[C@@H]2C)cc1 the results were Yeast UUG start 7.
CN(C)n1cnc2ccsc2c1=O was read as MC4R antag cAMP 2, ALR H2O2 inh -19, MC4R ag barr -3, NALP1 yeast inh 30* and HDAC3 inhib -4.
For COc1cccc(N2CCN(C(=O)c3ccc(CS(=O)Cc4ccc(C)cc4)o3)CC2)c1 (stereo not given) the results were MC4R antag cAMP 7, ALR H2O2 inh 79*, MC4R ag barr -3, Yeast UUG start 0, NALP1 yeast inh 25 and HDAC3 inhib -2.
For COc1cccc(N2CCN(C(=O)c3ccc(CS(=O)c4ccc(Cl)cc4)o3)CC2)c1 (stereo not given) the results were MC4R antag cAMP -8, ALR H2O2 inh 88*, MC4R ag barr -4, Yeast UUG start -17, NALP1 yeast inh 0 and HDAC3 inhib -5.
Screening Cc1[nH]c2ccccc2c1C(=O)C(C)OC(=O)c1ccc(Cl)nc1 (stereo not given) returned MC4R antag cAMP 0, MC4R ag barr -4 and HDAC3 inhib 6.
For Cc1[nH]c2ccccc2c1C(=O)C(C)OC(=O)c1ccc(NC(=O)CC#N)cc1 (stereo not given) the results were MC4R antag cAMP -14, ALR H2O2 inh 100*, MC4R ag barr 0 and HDAC3 inhib 4.
`CCOC(=O)CNC(=S)N(CCCN1CCCCC1)Cc1cccs1` gave MC4R antag cAMP 0, ALR H2O2 inh -4, MC4R ag barr -1, NALP1 yeast inh 4 and HDAC3 inhib 1.
CCOC(=O)CNC(=S)N(CCCN1CCCC1)Cc1cccs1 was read as MC4R antag cAMP 22, ALR H2O2 inh 99*, MC4R ag barr -2, NALP1 yeast inh 9 and HDAC3 inhib 2.

Reprinted from the listing, 3 compounds:
`COC(=O)c1ccc2nc(C)cc(Nc3ccc(N(C)C)cc3)c2c1` gave MC4R antag cAMP -4, ALR H2O2 inh 99*, MC4R ag barr 1, Yeast UUG start -5, NALP1 yeast inh 14 and HDAC3 inhib 9.
For COc1ccc(CN(C)C[C@H]2OCCCC[C@@H](C)Oc3ccc(NC(=O)c4ccncc4)cc3C(=O)N([C@@H](C)CO)C[C@@H]2C)cc1 the results were Yeast UUG start 7.
CN(C)n1cnc2ccsc2c1=O was read as MC4R antag cAMP 2, ALR H2O2 inh -19, MC4R ag barr -3, NALP1 yeast inh 30* and HDAC3 inhib -4.

Compound activity: PubChem, several laboratories
